# Patent publication US8946269B2, “Crystalline forms of a factor Xa inhibitor” (Portola Pharmaceuticals, Inc., priority 2010, dated 2015)
# Where two headings read alike, the source gives them in different places.
# Key:
# [1] = at 90 g/L, 35/65 v/v EtOH/water
# [2] = for Hygroscopicity, wt increase: up to 95% RH (summary table); for water gain: isothermal 25° C.
# [3] = 90% RH chamber for 2 weeks
saturation temperature [1],"Hygroscopicity, wt increase ([2]; listed as Betrixaban Maleate Form I)","water gain ([2]; up to 95% RH, FIG. 15, listed as polymorph of the '276 patent) [%]",XRPD pattern after humidity storage vs original sample [3],"XRPD pattern before and after vapor sorption analysis ([2]; 1% to 95% RH, Form II crystallized from dry ethanol)",water absorbed ([2]; at 95% RH),"Water intake ([2]; at 95% RH, Form II prepared from 25:75 ethanol/water through Form III, FIG. 15)","Hygroscopicity, wt increase ([2]; listed as Betrixaban Maleate Form II)","water gain ([2]; up to 95% RH, FIG. 15) [%]","Hygroscopicity, water adsorbed ([2]; up to 95% RH, Example 2 sample)","water adsorbed ([2]; up to 95% RH, Form II crystallized from dry ethanol, FIG. 8) [%]",SMILES
about 47 °C,Low (0.1% wt increase,0.07,,,,,,,,,"COc1ccc(NC(=O)c2ccc(C(=N)N(C)C)cc2)c(C(=O)Nc2ccc(Cl)cn2)c1 [Form I, reference compound]"
,,,same XRPD pattern as,Identical XRPD pattern,up to 1%,about 1%,Moderate (1% wt increase,1,~1 wt % water up to 95%,0.6,COc1ccc(NC(=O)c2ccc(C(=N)N(C)C)cc2)c(C(=O)Nc2ccc(Cl)cn2)c1 [Form II]
